Reference: PubChem BioAssay AID1347120 (National Center for Advancing Translational Sciences (NCATS), 2019)
Only a part is listed here, and it is no random draw. Inconclusive results are not listed. Activity calls are given as the source filed them. Calls come from the whole dose curve; as a rule, active = well fitted activation curve with a large enough effect; inconclusive = small, poorly fitted or top-dose-only effect; inactive = no such curve, though single readings can be large or run the other way.

Assay: qHTS for Suppressors of FUS Proteinopathy: Primary screen using FUS-linked yeast assay;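 note: plate controls were DMSO vehicle for no effect and reference control for full effect; nearly all actives have a fitted effect of over 55% in size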
Settings: S. cerevisiae FUS-expressing, OD600, 24 h; at 76.6 µM (top of the series)
Source text: Several widespread neurodegenerative diseases, including Alzheimer disease, Huntington disease, Frontotemporal Lobar Degeneration (FTLD) and Amyotrophic Lateral Sclerosis (ALS), share a common pathological feature, namely accumulation of specific protein aggregates in diseased tissue. These diseases which is associated with protein misfolding (proteinopathies) have become increasingly problematic as the population ages and life expectancies are extended. Most proteinopathies are currently incurable, a situation confounded by the fact that the basis of neurodegeneration is generally poorly understood. There exists urgent and significant need to find therapeutics that can inhibit the toxicity associated with protein aggregation. A novel approach to understand the underlying mechanisms of neurodegenerative diseases has recently emerged in which the disease conditions are modeled in the yeast (Saccharomyces cerevisiae), a tractable eukaryotic organism with conserved protein quality control mechanisms. Yeast offers quick and reliable genetic manipulations and can be easily tailored to high-throughput screening (HTS).
For this project, a yeast model of the FUS proteinopathies (a spectrum of neurodegenerative diseases that include ALS and a subtype of FTLD) was generated and employed. The cytoplasmic accumulation of the DNA/RNA-binding protein FUS (also known as TLS) is causative to both familial and sporadic forms of ALS and FTLD. This yeast model recapitulates neuronal pathology by showing severe cytotoxicity associated with cytoplasmic accumulation of FUS aggregates and a specific interaction between FUS and TDP-43, another ALS-associated protein. […] Specifically, the cellular accumulation of misfolded FUS that disrupts RNA homeostasis in both yeast and higher eukaryotes. This model was validated to be suitable for quantitative HTS (qHTS) use for finding genetic or chemical factors that restore growth. […] Identified compounds that inhibits FUS-yeast toxicity is flagged, re-acquired, and validated for further investigation and optimization.
NIH Chemical Genomics Center [NCGC]
NIH Molecular Libraries Probe Production Centers Network [MLPCN]
Assay Submitter (PI): Frank Shewmaker PhD, Uniformed Services University of the Health Sciences
Compound CP55940 was used as the positive control. Column 1 was treated with CP55940 titration from 92uM (final concentration, 1:2 dilution), while Column 2 was treated with top dose 92uM. Columns 3 and 4 were treated with DMSO only as negative control to assess background and noise signal.
Four hundred fifty microliter of cultured yeast (in 20mL rich medium) provided by Dr. Shewmaker lab was incubated at 30C at 99% humidity for 3hr. The culture was then spun down at 4000rpm for 5min and the cell pellet was resuspended in 2mL of Sdmin Media + ALU(330) + 2.5% Raffinose. One hundred microliter of the suspension was added to 900uL of water and OD of the solution was obtained. Twenty mL of responding medium (provided by Shewmaker lab) + 2.5% raffinose was added to ensure cell density of 0.1; the solution was incubated overnight. Working cell solution (FUS-yeast in Sdmi + Sdmi + 1X ALU + 2% galactose media) was prepared (final OD at 0.005) and 3uL was dispensed in a 1536-well Aurora high based clear bottom assay plates. Controls and library compounds (at various final concentrations from 40uM to 0.32uM) were added using a 1536-well pin array using the Kalypsys pin-tool. The plates were then incubated for 24hrs in a cell-culture incubator (30C; 99% humidity). Absorbance at 600nm was then read using the PerkinElmer ViewLux plate reader.

Row | Compound | growth rescue (activation)
1 | COc1ccccc1OP(C)(=O)Nc1c(C)cccc1C (stereo not given) | inactive: 7.46%
2 | CN1CCCCC1COC(=O)C1(O)c2ccccc2CCc2ccccc21 (stereo not given) | inactive: 7.31%
3 | CP(=O)(Nc1ccc(SC(F)(F)F)cc1)Oc1ccccc1 (stereo not given) | inactive: 44.4%
4 | CCCOc1ccc(NP(C)(=O)Oc2ccc(Cl)cc2)cc1 (stereo not given) | inactive: 28.5%
5 | COc1ccc(-c2ccccn2)cc1.O=[N+]([O-])c1cc([N+](=O)[O-])c(O)c([N+](=O)[O-])c1 | inactive: -5.99%
6 | O=[N+]([O-])c1cc([N+](=O)[O-])c(Nc2nnnn2CCO)c([N+](=O)[O-])c1 | inactive: -12.2%
7 | CC1=C2N=C(C=C3N=C(C(C)=C4[N-][C@@](C)([C@@H]5N=C1[C@](C)(CCC(=O)NC[C@@H](C)OP(=O)([O-])O[C@H]1[C@@H](O)[C@@H](n6cnc7cc(C)c(C)cc76)O[C@@H]1CO)[C@H]5CC(N)=O)[C@@](C)(CC(N)=O)[C@@H]4CCC(N)=O)[C@@](C)(CC(N)=O)[C@@H]3CCC(N)=O)C(C)(C)[C@@H]2CCC(N)=O.[C-]#N.[Co+3] | inactive: -16.5%
8 | O=[N+]([O-])c1cc([N+](=O)[O-])c(-c2cnn(-c3ccccc3)c2)c([N+](=O)[O-])c1 | inactive: -4.52%
9 | Cc1nc2ccc3ccccc3c2s1.O=[N+]([O-])c1cc([N+](=O)[O-])c(O)c([N+](=O)[O-])c1 | inactive: 2.65%
10 | O=[N+]([O-])c1cc([N+](=O)[O-])c(-n2nnc3ccccc32)c([N+](=O)[O-])c1 | inactive: 14%
11 | CN(Cc1cccnc1)C(=O)COc1ccc(Cl)c(Cl)c1.O=[N+]([O-])c1cc([N+](=O)[O-])c(O)c([N+](=O)[O-])c1 | inactive: -8.11%
12 | CP(=O)(Nc1cccc(Br)c1)Oc1ccccc1 (stereo not given) | inactive: 14.9%
13 | Cc1cc(C)cc(OP(C)(=O)Nc2ccccn2)c1 (stereo not given) | inactive: -19.7%
14 | Cc1ccc(C)c(NP(C)(=O)Oc2ccccc2)c1 (stereo not given) | inactive: 16.2%
15 | COc1ccccc1OP(C)(=O)Nc1cccc(Br)c1 (stereo not given) | inactive: 2.94%
16 | Cc1cc(C)cc(OP(C)(=O)Nc2ccc(C)cc2C)c1 (stereo not given) | inactive: 35%
17 | CCOC(=O)c1ccc(NP(C)(=O)Oc2ccccc2)cc1 (stereo not given) | inactive: 7.03%
18 | COc1ccccc1OP(C)(=O)Nc1ccc(C)cc1 (stereo not given) | inactive: -7.94%
19 | Cc1ccc(NP(C)(=O)Oc2ccccc2)c(C)c1 (stereo not given) | inactive: 13.2%
20 | COc1ccccc1OP(C)(=O)Nc1cc(Cl)ccc1C (stereo not given) | inactive: 13.1%
21 | COc1ccc(OP(C)(=O)Nc2cccc(F)c2)cc1 (stereo not given) | inactive: -4.49%
22 | Cc1cc(C)cc(OP(C)(N)=O)c1 (stereo not given) | inactive: -4.59%
23 | O=[N+]([O-])c1cc([N+](=O)[O-])c(Nc2cccnc2)c([N+](=O)[O-])c1 | inactive: -34.1%
24 | CC(C)(C)c1ccc(OP(C)(=O)Nc2ccc(SC(F)(F)F)cc2)cc1 (stereo not given) | inactive: 28.6%
25 | Cc1cccc(C)c1OP(C)(N)=O (stereo not given) | inactive: -6.01%
26 | O=[N+]([O-])c1ccc2c(c1)C=Nc1ccccc1O2 | inactive: 30.7%
27 | COc1ccccc1-c1ccccn1.O=[N+]([O-])c1cc([N+](=O)[O-])c(O)c([N+](=O)[O-])c1 | inactive: -10.9%
28 | CCN(CC)CCCOC(=O)C(O)(c1ccccc1)c1ccccc1 | inactive: -46.7%

Row | Compound | growth rescue (activation)
29 | CCOP(C)(=S)SCC(=O)NC(C)C(=O)O (stereo not given) | inactive: -20.1%
30 | CCOC(=O)c1ccc(NP(C)(=O)Oc2ccc(OC)cc2)cc1 (stereo not given) | inactive: 21%
31 | O=[N+]([O-])c1cc([N+](=O)[O-])c(O)c([N+](=O)[O-])c1.c1ccc(Oc2ccncc2)cc1 | inactive: 16.9%
32 | CP(=O)(Nc1ccccn1)Oc1ccc(Cl)cc1 (stereo not given) | inactive: -25.3%
33 | Cc1cccc(C)c1OP(C)(=O)Nc1ccc(SC(F)(F)F)cc1 (stereo not given) | inactive: -14.6%
34 | CP(=O)(Nc1ccc(SC(F)(F)F)cc1)Oc1ccc(Cl)cc1 (stereo not given) | inactive: 37.3%
35 | CP(=O)(Oc1ccccc1)OC(c1ccccc1)C(F)(F)F (stereo not given) | inactive: -8.19%
36 | CCc1ccc(OP(C)(=O)N2CCN(c3ccc([N+](=O)[O-])cc3)CC2)cc1 (stereo not given) | inactive: 36%
37 | CP(=O)(NC(=O)Nc1ccccc1)Oc1ccccc1 (stereo not given) | inactive: -2.97%
38 | Cc1cc(C)cc(OP(C)(=O)Nc2ccc(SC(F)(F)F)cc2)c1 (stereo not given) | inactive: 14.5%
39 | CP(=S)(Nn1cnnc1)Oc1ccccc1 (stereo not given) | inactive: -7.3%
40 | COc1ccccc1OP(C)(=O)Nc1ccccc1 (stereo not given) | inactive: 18.7%
41 | CP(=O)(Nc1ccccc1Br)Oc1ccccc1 (stereo not given) | inactive: 5.13%
42 | Nc1ccc2c(ccc3cccnc32)n1.O=[N+]([O-])c1cc([N+](=O)[O-])c(O)c([N+](=O)[O-])c1 | inactive: -3.02%
43 | CP(=O)(OC12CC3CC(CC(C3)C1)C2)OC12CC3CC(CC(C3)C1)C2 | inactive: 21.5%
44 | CP(=O)(Nc1ccc(Cl)cc1)Oc1ccc(F)cc1 (stereo not given) | inactive: 7.77%
45 | CC(C)(C)c1ccc(OP(C)(=O)O)cc1 | inactive: 0.361%
46 | COc1ccccc1OP(C)(=O)Nc1ccccc1Br (stereo not given) | inactive: 2.96%
47 | CN(C)C(=O)c1c([N+](=O)[O-])cc([N+](=O)[O-])cc1[N+](=O)[O-] | inactive: 8.55%
48 | CCN(CC)CC(O)COC(=O)C(O)(c1ccccc1)C1CCCCC1 (stereo not given) | inactive: 5.1%
49 | COc1ccc(OP(C)(=O)Nc2ccc(Br)cc2)cc1 (stereo not given) | inactive: 22.8%
50 | CP(=O)(Oc1ccccc1)N1CCOC1=O (stereo not given) | inactive: -17.8%
51 | CCc1ccc(OP(C)(=O)Nc2cccnc2)cc1 (stereo not given) | inactive: 9.57%
52 | COc1ccccc1OP(C)(=O)Nc1c(C)n(C)n(-c2ccccc2)c1=O (stereo not given) | inactive: -3.64%
53 | O=C(OCCCN1CCCC1)C(O)(c1ccccc1)C1CCCCC1 (stereo not given) | inactive: 9.72%
54 | O=[N+]([O-])c1cc([N+](=O)[O-])c(Nc2ccccn2)c([N+](=O)[O-])c1 | inactive: -2.21%
55 | Cc1c(NP(C)(=O)Oc2ccc(C(C)C)cc2)c(=O)n(-c2ccccc2)n1C (stereo not given) | inactive: 2.18%
